# US9067914B1, “Tropomyosin-related kinase (TRK) inhibitors” (Genzyme Corporation, priority 2013, dated 2015)
# Chains of the proteins cited; added tags and fusions are not shown. Residues count along the entry.
# UniProt Q16620, 32-822: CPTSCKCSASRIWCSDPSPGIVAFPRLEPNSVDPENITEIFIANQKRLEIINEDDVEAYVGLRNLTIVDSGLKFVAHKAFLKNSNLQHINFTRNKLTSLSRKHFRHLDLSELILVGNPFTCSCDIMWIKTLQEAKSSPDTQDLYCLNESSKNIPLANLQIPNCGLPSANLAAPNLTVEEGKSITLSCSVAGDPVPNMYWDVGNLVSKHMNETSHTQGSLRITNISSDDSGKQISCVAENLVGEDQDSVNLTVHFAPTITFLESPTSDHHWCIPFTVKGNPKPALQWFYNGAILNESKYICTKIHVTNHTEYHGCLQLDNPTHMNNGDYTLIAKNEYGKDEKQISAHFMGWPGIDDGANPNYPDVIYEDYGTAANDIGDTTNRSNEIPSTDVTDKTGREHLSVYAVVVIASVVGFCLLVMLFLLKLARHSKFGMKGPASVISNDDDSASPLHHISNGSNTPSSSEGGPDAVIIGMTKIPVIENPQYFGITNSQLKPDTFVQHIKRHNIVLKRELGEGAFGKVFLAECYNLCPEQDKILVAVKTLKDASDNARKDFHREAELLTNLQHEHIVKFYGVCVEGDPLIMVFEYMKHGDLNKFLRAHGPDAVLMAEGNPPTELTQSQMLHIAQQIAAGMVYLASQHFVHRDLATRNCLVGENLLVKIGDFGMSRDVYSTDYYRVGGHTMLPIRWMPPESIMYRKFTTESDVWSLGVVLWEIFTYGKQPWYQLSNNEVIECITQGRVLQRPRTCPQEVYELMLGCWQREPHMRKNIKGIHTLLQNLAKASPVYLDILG
# Molecular target: TrkB (Homo sapiens (Human), UniProt Q16620)
# Experiment: TrkB activity, off-chip mobility shift assay (LabChip 3000)
# Type: biochemical
# Excerpt: Reagents and consumables were purchased from Sigma Aldrich, Carna Biosciences, or Caliper Life Sciences. All assay reaction conditions for IC50 determinations were within the linear range with respect to time and enzyme concentration. […] The LabChip 3000 separates and measures the fluorescent signal of fluorescein labeled peptide substrate and fluorescein labeled peptide product present in each well. Results are expressed as percent conversion by measuring peak height for both the substrate and product and dividing the product peak height by the sum of peak heights for both substrate and product.
row,IC50 [nM],SMILES
1,0.6,"COc1cc([C@H](C)n2c(N)nc3cc(-c4cnn(C)c4)cnc32)ccc1OCc1ccc(C(F)(F)F)cc1 (single isomer, unassigned) [Ex. 3-49-6a, 3-(1-(3-methoxy-4-((4-(trifluoromethyl)benzyl)oxy)phenyl)ethyl)-6-(1-methyl-1H-pyrazol-4-yl)-3H-imidazo[4,5-b]pyridin-2-amine]"
2,3,"COc1cc([C@@H](C)n2c(N)nc3cc(-c4cnn(C)c4)cnc32)ccc1OCc1ccc(C(F)(F)F)cc1 (single isomer, unassigned) [Ex. 3-49-6b, 3-(1-(3-methoxy-4-((4-(trifluoromethyl)benzyl)oxy)phenyl)ethyl)-6-(1-methyl-1H-pyrazol-4-yl)-3H-imidazo[4,5-b]pyridin-2-amine]"
